Reference: PubChem BioAssay AID488788 (Broad Institute, 2010)
This is a selection; strong and weak results do not stand in their true shares. Records with an inconclusive call do not appear. Calls of active or inactive are those of the source. How the calls were made is not given here.

Chains of the proteins cited; added tags and fusions are not shown.
UniProt Q03530, whole entry: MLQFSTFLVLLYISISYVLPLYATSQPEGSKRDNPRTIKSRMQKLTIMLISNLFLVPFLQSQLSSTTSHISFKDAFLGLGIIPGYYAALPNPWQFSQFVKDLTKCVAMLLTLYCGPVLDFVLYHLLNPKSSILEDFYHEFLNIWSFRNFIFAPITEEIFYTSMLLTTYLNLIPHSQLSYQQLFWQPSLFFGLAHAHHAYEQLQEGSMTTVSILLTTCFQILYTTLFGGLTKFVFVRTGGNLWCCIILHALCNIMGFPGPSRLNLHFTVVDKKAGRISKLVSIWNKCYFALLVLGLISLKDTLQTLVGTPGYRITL

Biological target: CAAX prenyl protease 2 (Saccharomyces cerevisiae (strain ATCC 204508 / S288c)) (UniProt Q03530)
Assay: yeast Rce1 CAAX endoprotease inhibition – biochemical, plate reader, cherry-pick, dose response (AID 488788)
Details: Rce1p enzyme activity, at 10 µM (top of the series)

CN1CCC(Nc2cccc(F)c2)CC1
activity change, negative = inhibition: inactive
